Source: patent US20140323414A1 (priority 2011, published 2014)

Tested on: live anesthetized rats
Details: rat, in vivo

CNCC(O)c1ccc(O)c(O)c1 (centres unmarked) [Adrenalin]
arterial blood pressure (ABP): increased | heart contractility (LvP): 200 mmHg
